ChEMBL document CHEMBL1143395, “Cloning, expression, post-translational modifications and inhibition studies on the latest mammalian carbonic anhydrase isoform, CA XV” (J Med Chem, 2009)

Biological target: T1, Carbonic anhydrase 15 (Mus musculus, UniProt Q99N23)
T1 sequence (Q99N23 whole entry): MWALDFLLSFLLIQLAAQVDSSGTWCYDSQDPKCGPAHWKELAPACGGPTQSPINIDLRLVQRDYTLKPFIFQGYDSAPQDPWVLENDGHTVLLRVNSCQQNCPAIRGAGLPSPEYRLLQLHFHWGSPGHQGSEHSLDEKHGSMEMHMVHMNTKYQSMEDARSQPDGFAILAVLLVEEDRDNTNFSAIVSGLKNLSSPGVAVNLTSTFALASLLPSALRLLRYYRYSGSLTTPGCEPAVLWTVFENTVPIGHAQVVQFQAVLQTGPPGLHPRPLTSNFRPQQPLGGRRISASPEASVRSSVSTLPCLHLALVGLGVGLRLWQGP

- Ki: 45 nM
SMILES: Cc1ccc(-c2cc(C(F)(F)F)nn2-c2ccc(S(N)(=O)=O)cc2)cc1 [CELECOXIB]
